The text below walks through data of patent publication US10188742B2, “Bi-specific antibodies and uses thereof” (ACADEMIA SINICA, priority 2014, dated 2019).

One assay deals with A431 cells (EGFR+). In words: Cell ELISA: accumulation of PEGylated compounds via bi-functional antibodies. It is filed as cell-based, human. The conditions noted are these: FIG. 30B. As for the experimental part: (§1) In this example, the bi-functional activity of BsAbs of example 4.1 was investigated. Briefly, SKBR-3 human breast adenocarcinoma cells, which overexpress the HER2/c-erb-2 gene product, were coated in 96-well microtiter plates; then Herceptin/h-αPEG antibodies and control Herceptin antibodies were added to the microtiter plates. After the unbound bi-functional antibodies were washed out, PEGylated liposomes containing doxorubicin therein (herein Lipo-DOX) were added to the wells. Binding of the PEGylated compounds was determined by ELISA.

In assay [1] the test system is SKBR-3 human breast adenocarcinoma cells. Put plainly: Cell ELISA: binding of Lipo-DOX via bi-functional antibodies. In kind it is cell-based. Conditions: FIG. 30A. How it is done:
as §1

Regarding “Erbitux: commercial available targeted antibody, control (EGFR)”, the “accumulation of PEGylated compounds on the surface of A431 cells via antibody” value in the assay with A431 cells (EGFR+) is “but not the control Erbitux antibodies”.
As for “Herceptin: commercial available targeted antibody, control (HER2)”, in assay [1], the “binding of Lipo-DOX to SKBR-3 cells via antibody” value was “but not control Herceptin antibodies”.
